Type in all cases: cell-based
In assay [1] the test system is RT4 bladder cancer cell line. In words: Inhibition on the proliferation of RT4 cells (luminescent cell viability assay). The conditions noted are these: Homo sapiens, RT-4, 72 hours. As to the method: (§1) CellTilter-Glo reagent (Promega, Cat. No. G7572) consists of CTG lyophilized powder and CTG buffer. Before use, the lyophilized powder needs to be dissolved in the buffer.
(§2) The compound was diluted with DMSO (Sigma, Cat. No. D5879) to 5 mM, then serially diluted 4 times with DMSO to a minimum concentration of 0.31 μM, and each concentration point was further diluted 50 times with a DMEM medium free of FBS (ThermoFisher, Cat. No. 11995073). If the compound IC50 value was very low, the initial concentration of the compound could be lowered. […]
(§3) After overnight incubation, 3 μL of DMEM diluted compound was added to each well, which was then gently centrifuged to mix well, and then the 384-well plate was placed in a 37° C., 5% CO2 incubator to continue the culture, and after 72 hours, the plate was taken out and allowed to stand at room temperature for 30 minutes, next added 15 μL of CTG reagent per well, which was warmed up to room temperature, the plate was shaken gently on a shaker for 3 minutes to ensure sufficient cell lysis, allowed to stand 10 minutes to stabilize the luminescence signal, and then read the luminescence signal with EnVision (Perkin Elmer). […]
(§4) The compound IC50 value was calculated from 8 concentration points using XLfit (ID Business Solutions Ltd., UK) software by the following formula: Y=Bottom+(Top−Bottom)/(1+10^((log IC50−X)*slope factor)) […]

In assay [2] the test system is SNU-16 gastric cancer cell line. In words: Inhibition on the proliferation of SNU-16 cells (luminescent cell viability assay). The note with it: Homo sapiens, 72 hours. As to the method:
as §1, §2, §3, §4

For assay [3], the system named is Hep3B hepatoma cell line. Briefly: Inhibition on the proliferation of Hep3B cells (luminescent cell viability assay). The conditions noted are these: Homo sapiens, 72 hours. As to the method: The effect of the compounds of the present invention on cell proliferation of Hep3B hepatoma cell line was assessed using a luminescent cell viability assay (Table 2).
as §1, §2, §3

Structures are written as SMILES. Some results are limits rather than exact numbers.

The term IC50 denotes the midpoint of a concentration-inhibition curve. Read a high IC50 as lower potency.

In the case of `C=CC(=O)N1CC[C@H](n2nc(C#Cc3cc(OC)cc(OC)c3)c(C(N)=O)c2NC2CCN(C)CC2)C1` [Compound 34, (S)-1-(1-acryloylpyrrolidin-3-yl)-3-((3,5-dimethoxyphenyl)ethynyl)-5-((1-methylpiperidin-4-yl)amino)-1H-pyrazole-4-carboxamide], the half-maximal inhibitory concentration (IC50) in assay [1] was < 10 nM; in assay [2] it was < 10 nM; in assay [3], 10 to 100 nM.

Source of the values: US11572353B2, “Alkynyl-substituted heterocyclic compound, preparation method therefor and medical use thereof” (BEIJING INNOCARE PHARMA TECH CO., LTD., priority 2016, dated 2023).
